Earlier results in patent US20090062309A1, “Therapeutic compositions for the treatment of cardiovascular diseases and methods for use therefor” (priority 2007, published 2009).

Settings: upon ingestion, humans; cited from earlier work

Compound: Cl.NC(N)=NC(=O)c1nc(Cl)c(N)nc1N.O.O [Amiloride, 3,5-diamino-6-chloro-N-(diaminomethylene) pyrazinecarboxamide monohydrochloride, dihydrate]
- metabolism: not metabolized by the liver
